Legend:
Rattus norvegicus = organism: Rattus norvegicus; test: Analgesic effect in rat by hot plate assay relative to morphine
Mus musculus = organism: Mus musculus; test: Analgesic effect in mouse by hot plate assay relative to morphine

COc1ccsc1CNCC[C@@]1(c2ccccn2)CCOC2(CCCC2)C1 [OLICERIDINE]
fold change (FC) (Rattus norvegicus): 3
fold change (FC) (Mus musculus): 3
